PDI inh – PDI (human) enzyme inhibition. P07237. PDI insulin aggregation turbidity, A650, 90 min. inhibition, % at 10 µM. 350,000 tested, 0.052% active. AID 588391;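 active = mean inhibition across replicates of 30% or more, whatever share of single replicates reach that level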
S100A4 inh HTS – inhibitors of human S100A4 binding to myosin IIA peptide | P26447 | S100A4/TAMRA-MyoIIA peptide fluorescence polarization | inhibition, % at 10.7 µM | 360,000 tested, 0.14% active | AID 652163;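 active = mean inhibition of at least 70% across replicates, with every replicate also reaching that level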
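Test system: S100A4 monomer protein; Medium: HEPES pH 7.2 with CaCl2, KCl, NaCl, DTT, Triton; Probe or stimulus: TAMRA-labelled myosin IIA heavy-chain peptide probe, 5 nM; Doses: one dose per compound; Times: polarization read 5 min after assay mix addition, stable 5–60 min; Benchmarks: neutral control DMSO, positive control TFP.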
FGF22 binding – FGF22 (human) thermal shift binding; Q9HCT0; recombinant FGF22 thermal shift, SYPRO orange fluorescence; percent of sucrose octasulfate shift, DMSO zero; activity (Tm shift, normalised), % at 9.99 µM; 340,000 tested, 1.5% active;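 active = mean Tm shift, scaled 0 neutral to 100 positive control, at about 1.3% or above, every replicate too, limit read from the data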
SIRT5 block – blocks human SIRT5 desuccinylation of peptide; 330,000 tested, 1.1% active; inhibition, % at 15 µM; Purified SirT5, succinyl-peptide AMC, trypsin-coupled fluorescence; Q9NXA8; in the data active = inhibition above about 15%
Yeast UUG start – yeast start codon fidelity modulation; activity score, % at 18.7 µM; actives 0.13% (n = 350,000); S. cerevisiae UUG-firefly luciferase reporter, luminescence/redox ratio; AID 602363;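 active means replicate mean at a twofold rise or more, about +100% in these data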;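 further: firefly luciferase made from a UUG start codon reports start codon fidelity; reporter light over untreated wells divided by growth signal over untreated wells; some hits fall short of that in this replicate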
ERp5 block – inhibitors of human ERp5 | Q15084 | ERp5 insulin aggregation, absorbance 650 nm, 90 min | inhibition, % at 9.99 µM | 350,000 tested, 0.05% active;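 active = mean replicate inhibition above about 25%, with every replicate also reaching it, limit read from the data, passing the limit was not always enough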
The depositor's hits bear a star; . = no result given; ! = a repeat was not active. Only some compounds are listed: those with a hit (about 2.2% of all), similar ones and a draw of the others.

SMILES | PDI inh | S100A4 inh HTS | FGF22 binding | SIRT5 block | Yeast UUG start | ERp5 block
Cc1ccc(C)c(NC(=O)C2CCCN(S(=O)(=O)c3c(C)noc3/C=C/N(C)C)C2)c1 (stereo not drawn) | -11 | 122* | 0 | -6 | -33 | -5
CS(=O)(=O)Nc1ccc2c(c1)[C@H]1C[C@H](CC(=O)N3CCc4ccccc4C3)O[C@H](CO)[C@H]1O2 | . | -1 | 0 | -8 | -1 | -1
CN1CCC(=NNC(=O)C(=O)Nc2ccccc2F)CC1 | 6 | 4 | 43* | -2 | -11 | 2
COc1ccccc1C(CC(=O)c1ccccc1)CC(=O)c1ccccc1 | 0 | 1 | 0 | 3 | . | -1
COc1ccccc1C(CC(=O)c1ccccc1)C(=O)c1ccccc1 (stereo not drawn) | . | 0 | 0 | 17* | . | 1
Cc1ccccc1OCC(=O)Nc1cnn(CCCC(=O)O)c1 | -12 | 2 | 0 | 17* | -17 | 6
COc1cc(OC)cc(C(=O)NCCCNC(=O)c2ccccn2)c1 | 2 | 2 | 0 | 0 | 4 | 2
Cc1cc(NC(=O)COc2ccccc2C)no1 | -16 | 1 | 44* | -3 | . | 2
O=C(O)CCCn1cc(NC(=O)COc2ccccc2)cn1 | 6 | -7 | 0 | -1 | -22 | 0
Cc1ccccc1OCC(=O)NCCNC(=O)c1ccccn1 | -3 | 0 | 0 | 30* | -4 | 0
CC(C)Oc1ccc(C(=O)NCCCNC(=O)c2ccccn2)cc1 | -63 | -2 | 0 | 17* | -8 | -1
COc1ccc2c3c([nH]c2c1)[C@@H](CO)N(C(=O)Nc1cccc(F)c1)CC31CN(CC2CCOCC2)C1 | . | -3 | 0 | 1 | . | 14
COc1cc(/C=N/OCC(=O)Nc2cc(C)on2)ccc1OCc1ccccc1 | 2 | 2 | 0 | 28* | -7 | -1
CO[C@@H]1CN(C)C(=O)c2ccc(NC(=O)c3cnccn3)cc2OC[C@H](C)N(C(=O)C2CC2)C[C@@H]1C | . | -10 | 0 | -6 | -8 | 3
Cc1ccc(C(=O)N/N=C\C=C\c2ccc(Br)cc2)cn1 | -8 | -3 | 43* | -3 | . | -2
O=C(CC(F)(F)F)N1C[C@H]2[C@@H](c3ccccc31)[C@@H](CO)N2CC1CCCCC1 | . | -4 | 1 | 3 | 1 | 0
CCOc1cc(-c2cc(-c3ccc(N)cc3)nc(N)c2C#N)ccc1O | -8 | . | . | . | -12 | .
COc1cc(-c2cc(-c3ccc(F)cc3)nc(N)c2C#N)ccc1O | 6 | 2 | 43* | 0 | . | 2
O=C(NC(=S)N1CCN(c2nc(-c3ccccc3)cs2)CC1)c1cncc(Br)c1 | -1 | -4 | 43* | -2 | -29 | -2
O=C(O)CCNC(=O)c1ccc(NC(=O)C(c2ccccc2)c2ccccc2)cc1 | 4 | 1 | 0 | 57* | -10 | 4

In the list so far, 6 have a halogen.
SMILES | PDI inh | S100A4 inh HTS | FGF22 binding | SIRT5 block | Yeast UUG start | ERp5 block
CN1CCC(=NNC(=O)C(=O)Nc2ccccc2F)CC1 | 6 | 4 | 43* | -2 | -11 | 2
COc1ccc2c3c([nH]c2c1)[C@@H](CO)N(C(=O)Nc1cccc(F)c1)CC31CN(CC2CCOCC2)C1 | . | -3 | 0 | 1 | . | 14
Cc1ccc(C(=O)N/N=C\C=C\c2ccc(Br)cc2)cn1 | -8 | -3 | 43* | -3 | . | -2
O=C(CC(F)(F)F)N1C[C@H]2[C@@H](c3ccccc31)[C@@H](CO)N2CC1CCCCC1 | . | -4 | 1 | 3 | 1 | 0
COc1cc(-c2cc(-c3ccc(F)cc3)nc(N)c2C#N)ccc1O | 6 | 2 | 43* | 0 | . | 2
O=C(NC(=S)N1CCN(c2nc(-c3ccccc3)cs2)CC1)c1cncc(Br)c1 | -1 | -4 | 43* | -2 | -29 | -2

Next results.
SMILES | PDI inh | S100A4 inh HTS | FGF22 binding | SIRT5 block | Yeast UUG start | ERp5 block
O=C(O)CCNC(=O)c1ccc(NC(=O)Cc2ccc(Cl)cc2)cc1 | 2 | -3 | . | 26* | . | 11
CC(C)CNC(=O)[C@@H]1c2ccccc2C(=O)N(CC23CC4CC(CC(C4)C2)C3)[C@H]1c1ccc(CO)cc1 | . | 2 | 0 | 4 | 4 | 0
O=C(CN1CC(=O)Nc2ccccc21)Nc1ccc(F)c(F)c1 | 1 | -4 | 43* | -4 | . | 9
O=C(CN1CCNC(=O)C1)NCCc1ccc(Cl)cc1Cl | 14 | 1 | 0 | -1 | . | 4
O=C(CN1CC(=O)Nc2ccccc21)NCCc1ccc(Cl)cc1Cl | -6 | -2 | 44* | -3 | . | -7
COc1ccccc1S(=O)(=O)N[C@@H]1CC[C@@H](CC(=O)NCc2cc(F)cc(F)c2)O[C@@H]1CO | . | 1 | 0 | -4 | . | -1
Cc1cccc(C)c1NC(=O)CN(C)c1ccc(C(F)(F)F)cn1 | 4 | 22 | 43* | 1 | . | 3
O=C(COc1ccccc1Br)Nc1ccccc1C(F)(F)F | -9 | 2 | 43* | -1 | . | 3
CC(=O)Nc1ccccc1OCC(=O)NCC(F)(F)F | 7 | -4 | 44* | -2 | . | 6
CCOc1ccc(OCC(=O)Nc2ccccc2C(F)(F)F)cc1 | 0 | -3 | . | -4 | -9 | -10
COc1ccc(NC(=O)Nc2ccc3c(c2)C(=O)N([C@@H](C)CO)C[C@H](C)[C@@H](CN(C)Cc2ccccc2)O3)cc1 | . | 5 | 0 | 4 | 8 | 1
CC(=O)c1ccc(N2CCN(C(=O)CCCn3c(=O)[nH]c4ccccc4c3=O)CC2)cc1 | -8 | -3 | 43* | -1 | . | -6
CC(=O)c1ccc(N2CCN(C(=O)Cc3n[nH]c(=O)c4ccccc34)CC2)cc1 | 2 | -1 | 43 | 16* | -6 | 7
CCOC(=O)N1CCN(C(=O)CCCn2c(=O)[nH]c3ccccc3c2=O)CC1 | 3 | . | . | . | -17 | .
COc1cc2[nH]c(=O)n(CCCCCC(=O)N3CCN(c4ccccn4)CC3)c(=O)c2cc1OC | 11 | 0 | . | 24* | -8 | 1
CCCC(=O)Nc1ccc2c(c1)C(=O)N(C)[C@H]1CC[C@@H](CC(=O)NCc3ccccc3F)O[C@@H]1CO2 | . | . | 0 | . | 12 | .
Cc1ccc(C)c(OCC(=O)N2CCc3ccccc3C2)c1 | 2 | -4 | 0 | -3 | 20 | -23
Cc1cc(OCC(=O)N2CCc3ccccc3C2)c(C)cc1Br | 5 | -3 | 18* | 2 | -15 | 4
O=C(Cc1ccccc1[N+](=O)[O-])NCc1ccco1 | 3 | -11 | 44* | 1 | . | -5
COCC(=O)N1CC(=O)N2[C@@H](CO)[C@@H](c3ccc(C#CC4CCCC4)cc3)[C@@H]2C1 | . | 7 | . | -2 | . | 3
C=CCc1cc(Cl)ccc1OCCCNCCO | 9 | -7 | 44* | 1 | . | 2
N#Cc1cccc(-c2ccc3c(c2)[C@@H]2[C@@H](CCN2C(=O)C2CCCCC2)[C@@H](CO)N3)c1 | . | -25 | 0 | 4 | -10 | 6
CC(=O)Nc1ccc(-c2csc(NC(=O)CCCc3cccs3)n2)cc1 | 14 | -1 | 2.1* | 0 | 3 | 2
Cc1ccc(-c2csc(NC(=O)CCCc3cccs3)n2)cc1 | -5 | . | . | . | . | .
Cc1ccccc1S(=O)(=O)NCC[C@H]1CC[C@@H](NC(=O)Nc2cccc(Cl)c2)[C@H](CO)O1 | . | 3 | 0 | -1 | 5 | 0
Cc1ccc(-c2cnc3c(c2)C(=O)N([C@@H](C)CO)C[C@H](C)[C@H](CN(C)C)O3)cc1 | . | 9 | 0 | 16* | -5 | -3
C[C@H]1CN([C@@H](C)CO)C(=O)c2cc(-c3cccc(F)c3)cnc2O[C@H]1CN(C)C | . | -6 | 0 | -1 | -6 | -2
C[C@@H]1CN([C@@H](C)CO)C(=O)c2cc(Br)cnc2O[C@H]1CN(C)Cc1cccc(F)c1 | . | -75 | 0 | -5 | 5 | 37*!
Cc1ccc(-c2cnc3c(c2)C(=O)N([C@@H](C)CO)C[C@@H](C)[C@H](CN(C)C)O3)cc1 | . | 9 | 0 | -1 | -11 | -2
